Reference: patent publication US20250152570A1 (AIR FORCE MEDICAL UNIVERSITY, priority 2022, published 2025)

Columns and labels:
Type in all cases: cell-based
Conditions in all cases: at the same drug concentration
TE10 cells [1] = assay: CCK8 cell proliferation, TE10
Description: (§1) At the same time, BI-D1870 was used as a positive control, and no drug was used as a blank control (Black).
(§2) The CCK-8 cell proliferation kit of Shanghai Taoshu Biotechnology Co., Ltd. was used. • (1) Cell suspension was inoculated in a 96-well plate, 100 μL per well, 2,000 cells per well. • (2) Culture or give drugs according to experimental needs, and treat for an appropriate time. • (3) Add 10 μL of CCK-8 solution to each well and incubate at 37° C. • (4) The absorbance value was determined by selecting a wavelength of 450 nm on the microplate reader. The growth curve was drawn based on time and absorbance value.

ECA109 cells [2] = assay: CCK8 cell proliferation, ECA109
Description: as §1, §2

TE10 cells [3] = assay: Transwell migration assay, TE10
Description: as §1
(§3) • (1) Digest cells. Wash once with PBS, resuspend in serum-free medium, and adjust the cell density to 5×10^5/ml. • (2) Add 500 μl of culture medium containing 10% fetal bovine serum to the lower chamber of the 24-well plate. Take 200 μl of cell suspension and add it to the chamber. Note that there are no bubbles between the chamber and the lower culture medium. • (3) Culture routinely for 16-24 h. • (4) Aspirate the culture medium in the chamber, fix the cells in the chamber with anhydrous methanol for 15 min, and rinse with PBS. • (5) Color: Add Gumsa staining solution to the 24-well plate, immerse the membrane in the staining solution for 20 min, and wash with PBS. • (6) Carefully wipe off the cells on the inner layer of the membrane with a cotton swab and air-dry the membrane. • (7) Take pictures under a microscope, count 5 high-power fields, and take the average value.

ECA109 cells [4] = assay: Transwell migration assay, ECA109
Description: as §1, §3

Cc1cc(F)c(C(=O)Nc2cccc(-c3nncn3C(C)C)n2)cc1-n1cnc(C2CC2)c1 [Selonsertib, 5-(4-cyclopropyl-1H-imidazol-1-yl)-2-fluoro-N-(6-(4-isopropyl-4H-1,2,4-triazol-3-yl)pyridine-2-yl)-4-methylbenzamide]
stronger inhibitory effect: inhibitory effect on proliferation of TE10 versus BI-D1870 (TE10 cells [1]) | inhibitory effect on proliferation of ECA109 versus BI-D1870 (ECA109 cells [2]) | inhibitory effect on migration of TE10 versus BI-D1870 (TE10 cells [3]) | inhibitory effect on migration of ECA109 versus BI-D1870 (ECA109 cells [4])
